This note sets out measurements from patent US20160153002A1, “METHOD FOR CELL MEMBRANE PERMEATION FOR COMPOUND” (HitGen LTD., priority 2013, published 2016).

“Also recorded” adds a separate entry of the source.

In this data set the test system is HepG2 cells. Kind of data set: Transmembrane transfer of molecular conjugates with X-tremeGENEsiRNA reagent, laser confocal / fluorescent microscopy. To be noted: for positioning in cells (penetration through the cell membrane / transfer into cells): 4 nmol, X-tremeGENEsiRNA reagent, 6 h, laser confocal microscope, FIG. 5 and FIG. 6.

On to “4-bromo-3-oxoacetic acid-5-(3-(((1-(4-fluorescein 19 polyA) 12-alkyl acetamidophenyl)-1H-1,2,3-triazole-4-methylene)(1-phenylcarbamoylpiperidine)-4-methyl)amino)phenyl)thiophene-2-formic acid [molecular conjugate 1]”, for which the “positioning in cells (penetration through the cell membrane / transfer into cells)” value is “penetrate through the cell membrane successfully and be transferred into cells; also recorded: transferred into cells, with most of them into the cytoplasm and a few of them into the cell nucleus”. In addition, under “cells counted by phase contrast vs fluorescent microscope, FIG. 7C”, the transfer efficiency entry is reported as “over 80%”.
As to “4-bromo-3-oxo-tert-Butyl acetate-5-(3-((((1-phenyl carbamoylpiperidine)-4-methyl)-N-propargyl amine)phenyl)thiophene-2-methyl formate directly tagged with FITC”, the “positioning in cells (penetration through the cell membrane / transfer into cells)” value is given as “cannot penetrate through the cell membrane into cells”.
